Molecules are shown by their SMILES.

Sequences of proteins named here, by UniProt entry; tags and fusion partners are left off. Residues count along the entry.
UniProt P30926, 22-498: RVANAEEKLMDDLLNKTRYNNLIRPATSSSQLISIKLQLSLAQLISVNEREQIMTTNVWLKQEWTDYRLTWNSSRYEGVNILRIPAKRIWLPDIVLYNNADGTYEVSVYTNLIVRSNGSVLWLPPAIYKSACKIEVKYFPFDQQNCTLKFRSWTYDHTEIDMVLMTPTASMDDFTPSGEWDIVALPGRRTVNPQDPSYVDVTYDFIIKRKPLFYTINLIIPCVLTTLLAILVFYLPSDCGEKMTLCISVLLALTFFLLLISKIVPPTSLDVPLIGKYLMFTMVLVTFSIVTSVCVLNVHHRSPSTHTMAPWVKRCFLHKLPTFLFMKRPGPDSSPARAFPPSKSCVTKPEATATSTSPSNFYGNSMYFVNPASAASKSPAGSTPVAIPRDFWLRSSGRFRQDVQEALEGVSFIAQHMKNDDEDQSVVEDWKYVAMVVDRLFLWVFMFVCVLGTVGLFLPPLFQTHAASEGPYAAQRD
UniProt P32297, 32-505: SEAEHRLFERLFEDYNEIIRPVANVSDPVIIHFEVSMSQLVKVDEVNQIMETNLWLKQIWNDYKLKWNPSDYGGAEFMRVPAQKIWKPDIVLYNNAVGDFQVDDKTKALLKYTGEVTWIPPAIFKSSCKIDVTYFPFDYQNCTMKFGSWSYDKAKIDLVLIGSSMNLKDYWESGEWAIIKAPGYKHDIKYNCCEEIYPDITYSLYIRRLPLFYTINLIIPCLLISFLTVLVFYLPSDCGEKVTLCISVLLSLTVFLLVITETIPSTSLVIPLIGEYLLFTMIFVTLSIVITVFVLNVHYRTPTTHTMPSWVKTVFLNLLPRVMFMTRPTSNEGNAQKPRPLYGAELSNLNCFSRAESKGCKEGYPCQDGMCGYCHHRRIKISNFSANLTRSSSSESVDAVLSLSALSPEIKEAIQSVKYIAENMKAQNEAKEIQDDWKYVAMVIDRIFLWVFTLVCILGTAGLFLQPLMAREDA

The experiment has as its target ganglion-type receptors (α3β4 subtype in human SHSY-5Y clonal cells) (Homo sapiens, UniProt P30926+P32297). The experiment can be described thus: cell-based. The conditions noted are these: SH-SY5Y, read-out: agonist activity, % of nicotine's response (human ganglion).
`CN(C(=O)Nc1ccccc1)C1C2CCN(CC2)C1Cc1cccnc1` (centres unmarked) [Compound 26, N-phenyl-N′-methyl-N′-(2-((3-pyridinyl)methyl)-1-azabicyclo[2.2.2]oct-3-yl)urea]: the activation at 100 µM was in the range of 1 to 15%.

For the compound `O=C(C=Cc1ccccc1)NC1C2CCN(CC2)C1Cc1cccnc1` (centres unmarked) [Compound 28, N-(2-((3-pyridinyl)methyl)-1-azabicyclo[2.2.2]oct-3-yl)3-phenylprop-2-enamide], the activation at 100 µM was in the range of 1 to 15%.

As for `O=C(NC1C2CCN(CC2)C1Cc1cccnc1)c1ccccc1` (centres unmarked) [Compound 13, N-(2-((3-pyridinyl)methyl)-1-azabicyclo[2.2.2]oct-3-yl)benzamide], the activation at 100 µM fell in the range of 1 to 15%. The same measure for `O=C(Nc1ccc(F)cc1)OC1C2CCN(CC2)C1Cc1cccnc1` (centres unmarked) [Compound 3, 2-((3-pyridinyl)methyl)-1-azabicyclo[2.2.2]oct-3-yl N-(4-fluorophenyl)carbamate]: 1 to 15%; for `COc1cccc(C(=O)NC2C3CCN(CC3)C2Cc2cccnc2)c1` (centres unmarked) [Compound 14, N-(2-((3-pyridinyl)methyl)-1-azabicyclo[2.2.2]oct-3-yl)-3-methoxybenzamide]: 1 to 15%. The same measure for `CSc1ccc(NC(=O)NC2C3CCN(CC3)C2Cc2cccnc2)cc1` (centres unmarked) [Compound 18, N-(4-methylthiophenyl)-N′-(2-((3-pyridinyl)methyl)-1-azabicyclo[2.2.2]oct-3-yl)urea]: 1 to 15%; for `CSc1ccc(NC(=O)OC2C3CCN(CC3)C2Cc2cccnc2)cc1` (centres unmarked) [Compound 5, 2-((3-pyridinyl)methyl)-1-azabicyclo[2.2.2]oct-3-yl N-(4-methylthiophenyl)carbamate]: 1 to 15%. Then `O=C(C=Cc1ccccc1O)NC1C2CCN(CC2)C1Cc1cccnc1` (centres unmarked) [Compound 34, N-(2-((3-pyridinyl)methyl)-1-azabicyclo[2.2.2]oct-3-yl)-3-(2-hydroxyphenyl)prop-2-enamide], with 1 to 15%.

On to `O=C(NC1C2CCN(CC2)C1Cc1cccnc1)c1ccc(Br)cc1` (centres unmarked) [Compound 10, N-(2-((3-pyridinyl)methyl)-1-azabicyclo[2.2.2]oct-3-yl)-4-bromobenzamide], for which the activation at 100 µM lay in the range of 1 to 15%. Turning to `O=C(C=Cc1ccc(Br)cc1)NC1C2CCN(CC2)C1Cc1cccnc1` (centres unmarked) [Compound 30, N-(2-((3-pyridinyl)methyl)-1-azabicyclo[2.2.2]oct-3-yl)-3-(4-bromophenyl)prop-2-enamide], the activation at 100 µM lay in the range of 1 to 15%. As for `O=C(Nc1ccccc1)NC1C2CCN(CC2)C1Cc1cccnc1` (centres unmarked) [Compound 16, N-phenyl-N′-(2-((3-pyridinyl)methyl)-1-azabicyclo[2.2.2]oct-3-yl)urea], the activation at 100 µM lay in the range of 1 to 15%.

On to `CN(C)c1ccc(NC(=O)NC2C3CCN(CC3)C2Cc2cccnc2)cc1` (centres unmarked) [Compound 25, N-(4-dimethylaminophenyl)-N′-(2-((3-pyridinyl)methyl)-1-azabicyclo[2.2.2]oct-3-yl)urea], for which the activation at 100 µM lay within 1 to 15%.

On to `COc1ccc(NC(=O)OC2C3CCN(CC3)C2Cc2cccnc2)cc1` (centres unmarked) [Compound 4, 2-((3-pyridinyl)methyl)-1-azabicyclo[2.2.2]oct-3-yl N-(4-methoxyphenyl)carbamate], for which the activation at 100 µM fell in the range of 1 to 15%.

Regarding `O=C(NC1C2CCN(CC2)C1Cc1cccnc1)c1cccc(Br)c1` (centres unmarked) [Compound 15, N-(2-((3-pyridinyl)methyl)-1-azabicyclo[2.2.2]oct-3-yl)-3-bromobenzamide], the activation at 100 µM lay within 1 to 15%. Take `COc1ccccc1NC(=O)NC1C2CCN(CC2)C1Cc1cccnc1` (centres unmarked) [Compound 21, N-(2-methoxyphenyl)-N′-(2-((3-pyridinyl)methyl)-1-azabicyclo[2.2.2]oct-3-yl)urea]: the activation at 100 µM is 1 to 15%. As for `O=C(C=Cc1cccc(O)c1)NC1C2CCN(CC2)C1Cc1cccnc1` (centres unmarked) [Compound 31, N-(2-((3-pyridinyl)methyl)-1-azabicyclo[2.2.2]oct-3-yl)-3-(3-hydroxyphenyl)prop-2-enamide], the activation at 100 µM lay in the range of 1 to 15%. In the case of `O=C(NC1C2CCN(CC2)C1Cc1cccnc1)c1ccc(F)cc1` (centres unmarked) [Compound 8, N-(2-((3-pyridinyl)methyl)-1-azabicyclo[2.2.2]oct-3-yl)-4-fluorobenzamide], the activation at 100 µM is 1 to 15%. As for `O=C(C=Cc1ccc(Cl)cc1)NC1C2CCN(CC2)C1Cc1cccnc1` (centres unmarked) [Compound 29, N-(2-((3-pyridinyl)methyl)-1-azabicyclo[2.2.2]oct-3-yl)-3-(4-chlorophenyl)prop-2-enamide], the activation at 100 µM is 1 to 15%. Turning to `O=C(Nc1ccc(Br)cc1)OC1C2CCN(CC2)C1Cc1cccnc1` (centres unmarked) [Compound 1, 2-((3-pyridinyl)methyl)-1-azabicyclo[2.2.2]oct-3-yl N-(4-bromophenyl)carbamate], the activation at 100 µM lay within 1 to 15%. As for `CN(C(=O)Nc1ccc(Br)cc1)C1C2CCN(CC2)C1Cc1cccnc1` (centres unmarked) [Compound 27, N-(4-bromophenyl)-N′-methyl-N′-(2-((3-pyridinyl)methyl)-1-azabicyclo [2.2.2]oct-3-yl)urea], the activation at 100 µM was 1 to 15%. For `COc1cccc(C=CC(=O)NC2C3CCN(CC3)C2Cc2cccnc2)c1` (centres unmarked) [Compound 32, N-(2-((3-pyridinyl)methyl)-1-azabicyclo[2.2.2]oct-3-yl)-3-(3-methoxyphenyl)prop-2-enamide], the activation at 100 µM fell in the range of 1 to 15%. Consider `COc1ccc(NC(=O)NC2C3CCN(CC3)C2Cc2cccnc2)c(OC)c1` (centres unmarked) [Compound 22, N-(2,4-dimethoxyphenyl)-N′-(2-((3-pyridinyl)methyl)-1-azabicyclo[2.2.2]oct-3-yl)urea], for which the activation at 100 µM lay in the range of 1 to 15%. For `O=C(Nc1ccc(Br)cc1)NC1C2CCN(CC2)C1Cc1cccnc1` (centres unmarked) [Compound 20, N-(4-bromophenyl)-N′-(2-((3-pyridinyl)methyl)-1-azabicyclo[2.2.2]oct-3-yl)urea], the activation at 100 µM was 1 to 15%. Consider `O=C(C=Cc1ccccc1F)NC1C2CCN(CC2)C1Cc1cccnc1` (centres unmarked) [Compound 33, N-(2-((3-pyridinyl)methyl)-1-azabicyclo[2.2.2]oct-3-yl)-3-(2-fluorophenyl)prop-2-enamide], for which the activation at 100 µM was 1 to 15%. On to `O=C(Nc1cccc(F)c1)NC1C2CCN(CC2)C1Cc1cccnc1` (centres unmarked) [Compound 19, N-(3-fluorophenyl)-N′-(2-((3-pyridinyl)methyl)-1-azabicyclo[2.2.2]oct-3-yl)urea], for which the activation at 100 µM was 1 to 15%. As for `O=C(NC1C2CCN(CC2)C1Cc1cccnc1)c1cc2ccccc2o1` (centres unmarked) [Compound 9, N-(2-((3-pyridinyl)methyl)-1-azabicyclo[2.2.2]oct-3-yl)benzofuran-2-carboxamide], the activation at 100 µM was 1 to 15%. Regarding `O=C(Nc1ccc(Oc2ccccc2)cc1)NC1C2CCN(CC2)C1Cc1cccnc1` (centres unmarked) [Compound 17, N-(4-phenoxyphenyl)-N′-(2-((3-pyridinyl)methyl)-1-azabicyclo[2.2.2]oct-3-yl)urea], the activation at 100 µM is 1 to 15%. In the case of `COc1ccc(NC(=O)NC2C3CCN(CC3)C2Cc2cccnc2)cc1` (centres unmarked) [Compound 24, N-(4-methoxyphenyl)-N′-(2-((3-pyridinyl)methyl)-1-azabicyclo[2.2.2]oct-3-yl)urea], the activation at 100 µM is 1 to 15%. With `O=C(Nc1ccc(Cl)c(Cl)c1)NC1C2CCN(CC2)C1Cc1cccnc1` (centres unmarked) [Compound 23, N-(3,4-dichlorophenyl)-N′-(2-((3-pyridinyl)methyl)-1-azabicyclo[2.2.2]oct-3-yl)urea], the activation at 100 µM was 1 to 15%.

The record behind these values is patent US6953855B2 (priority 1998, dated 2005).
